Values joined by “and” are separate entries in the source; they are usually repeats but may differ in a detail not shown here. Equal entries are not always repeated. This is a selection; strong and weak results do not stand in their true shares. Inconclusive results are not listed. Active and inactive are the calls of the source. Unless noted, calls come from the whole dose curve; as a rule, active = well fitted curve in the direction sought with a large enough effect in the repeat runs; inconclusive = weak or mixed curves; inactive = no such curve, though single readings can be large; an effect the other way counts as inactive or inconclusive.
Assays:
[1] = qHTS assay for small molecule agonists of the antioxidant response element (ARE) signaling pathway - cell viability counter screen (AID 743203; calls by dose curve; note: nearly all actives have a fitted effect of over 55% in size); details: ARE-bla HepG2 viability, CellTiter-Glo luminescence, 16 h
Outline: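 CellSensor ARE-bla HepG2 cells, 2,000 per well, rested 5 hrs at 37C/5% CO2, then exposed to compound in DMSO for 16 hrs; viability read as CellTiter-Glo luminescence after 30 min at room temperature, in the reporter wells.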

Amino acid sequences for entries named in this document (tags omitted).
UniProt P11473, whole entry: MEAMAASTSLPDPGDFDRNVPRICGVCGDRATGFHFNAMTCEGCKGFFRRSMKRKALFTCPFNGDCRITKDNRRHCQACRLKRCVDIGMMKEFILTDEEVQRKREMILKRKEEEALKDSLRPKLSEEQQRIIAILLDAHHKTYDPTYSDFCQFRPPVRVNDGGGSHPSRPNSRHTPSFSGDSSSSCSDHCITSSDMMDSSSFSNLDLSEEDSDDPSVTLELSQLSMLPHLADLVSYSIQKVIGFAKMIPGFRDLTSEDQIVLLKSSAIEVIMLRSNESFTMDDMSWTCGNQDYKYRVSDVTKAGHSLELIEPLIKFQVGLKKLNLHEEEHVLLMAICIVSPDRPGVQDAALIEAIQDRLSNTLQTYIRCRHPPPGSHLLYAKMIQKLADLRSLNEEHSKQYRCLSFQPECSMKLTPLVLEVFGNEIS
UniProt Q03181, whole entry: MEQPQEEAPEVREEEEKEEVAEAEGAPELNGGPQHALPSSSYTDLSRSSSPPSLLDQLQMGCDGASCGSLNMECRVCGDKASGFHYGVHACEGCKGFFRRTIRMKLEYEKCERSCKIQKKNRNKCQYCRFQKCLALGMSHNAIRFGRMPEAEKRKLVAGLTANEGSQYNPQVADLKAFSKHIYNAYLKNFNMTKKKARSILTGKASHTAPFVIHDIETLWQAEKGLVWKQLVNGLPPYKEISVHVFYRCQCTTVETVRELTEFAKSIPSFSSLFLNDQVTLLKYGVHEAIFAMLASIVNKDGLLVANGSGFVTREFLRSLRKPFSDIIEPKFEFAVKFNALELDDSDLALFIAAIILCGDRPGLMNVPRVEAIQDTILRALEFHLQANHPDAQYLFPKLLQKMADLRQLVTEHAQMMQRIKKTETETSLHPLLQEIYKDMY
UniProt Q96RI1, whole entry: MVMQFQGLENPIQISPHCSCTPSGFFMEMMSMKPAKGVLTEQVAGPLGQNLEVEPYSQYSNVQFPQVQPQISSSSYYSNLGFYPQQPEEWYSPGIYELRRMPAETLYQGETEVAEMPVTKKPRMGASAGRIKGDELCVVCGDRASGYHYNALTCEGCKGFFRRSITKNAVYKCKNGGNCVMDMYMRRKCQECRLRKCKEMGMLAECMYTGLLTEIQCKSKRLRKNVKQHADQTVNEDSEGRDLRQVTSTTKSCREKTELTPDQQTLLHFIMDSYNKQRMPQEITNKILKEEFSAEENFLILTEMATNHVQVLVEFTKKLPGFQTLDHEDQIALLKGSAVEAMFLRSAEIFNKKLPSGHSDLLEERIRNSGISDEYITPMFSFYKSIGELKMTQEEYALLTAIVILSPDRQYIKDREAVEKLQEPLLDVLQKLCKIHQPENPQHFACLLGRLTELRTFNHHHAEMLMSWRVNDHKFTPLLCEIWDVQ

[2] = qHTS assay to identify small molecule agonists of the peroxisome proliferator-activated receptor delta (PPARd) signaling pathway - cell viability counter screen (AID 743211); details: PPARd-bla HEK293H viability, CellTiter-Glo luminescence, 17 h; note: nearly all actives have a fitted effect of over 55% in size
Outline: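 PPARd-bla HEK293H cells (UAS-beta-lactamase reporter) were treated with compounds for 17 h at 37 C. Viability was then read in the same wells by CellTiter-Glo luminescence after 30 min at room temperature.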

[3] = qHTS assay to identify small molecule agonists of the farnesoid-X-receptor (FXR) signaling pathway - cell viability counter screen (AID 743218); details: FXR-bla HEK293T viability, CellTiter-Glo luminescence, 16 h; note: nearly all actives have a fitted effect of over 45% in size
Outline: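 FXR-UAS-bla HEK 293T cells, plated 5 h at 37 C, were exposed to compounds for 16 h at 37 C. CellTiter-Glo was then added to the same wells as the bla readout; luminescence read after 30 min at room temperature.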

[4] = biological target: Vitamin D3 receptor (Homo sapiens) (UniProt P11473); assay: qHTS assay to identify small molecule antagonists of the vitamin D receptor (VDR) signaling pathway (AID 743223; active = well fitted inhibition curve with a large enough effect in the signal ratio in the repeat runs, not every such curve was filed as active; the % refers to the signal ratio); details: VDR-UAS-bla HEK293T, beta-lactamase FRET ratio, 16 h
Outline: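 VDR-bla cells were plated, incubated 4 h at 37C, then given compound and 1alpha,25-dihydroxyvitamin D3 (3 nM final). After 16 h at 37C, LiveBLAzer B/G FRET substrate was added for 2 h at room temperature and fluorescence read.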

[5] = qHTS assay to identify small molecule agonists of the vitamin D receptor (VDR) signaling pathway - cell viability counter screen (AID 743224); details: VDR-bla HEK293T viability, CellTiter-Glo luminescence, 16 h; note: nearly all actives have a fitted effect of over 50% in size
Outline: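 VDR-bla cells were preincubated 4 h at 37C/5% CO2, then exposed to compounds for 16 h. After the 2 h room-temperature bla FRET read, CellTiter-Glo was added to the same wells and luminescence read after 30 min.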

[6] = qHTS assay for small molecule activators of the heat shock response signaling pathway (AID 743210; active = well fitted activation curve with a large enough effect in the signal ratio in the repeat runs, with a control signal flat, not every such curve was filed as active; the % refers to the signal ratio;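 note: HeLa cells with beta-lactamase reporter driven by heat shock elements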); details: HeLa HSE-bla reporter, beta-lactamase ratio, 5 h
Outline: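 Quantitative high-throughput format using an engineered HeLa line in which heat shock response elements drive beta-lactamase; after 5 h with compound, cells received a B/G FRET substrate and fluorescence was read.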

[7] = biological target: Peroxisome proliferator-activated receptor delta (Homo sapiens) (UniProt Q03181); assay: qHTS assay to identify small molecule agonists of the peroxisome proliferator-activated receptor delta (PPARd) signaling pathway (AID 743212; calls by dose curve); details: HEK293H PPARd-UAS-bla, beta-lactamase FRET ratio, 17 h
Outline: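 Quantitative high-throughput agonist screen in a HEK293H beta-lactamase reporter line under UAS control. Compounds in DMSO, at 37 C. Fluorescence read after 2 h with FRET substrate at room temperature.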

[8] = qHTS assay to identify small molecule antagonists of the peroxisome proliferator-activated receptor delta (PPARd) signaling pathway - cell viability counter screen (AID 743213); details: PPARd-bla HEK293H viability, CellTiter-Glo luminescence, 17 h; note: nearly all actives have a fitted effect of over 50% in size
Outline: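 In this counter screen, HEK293H cells carrying a UAS-beta-lactamase reporter are co-treated with test compounds and 300 nM L165041 (final) for 17 h at 37 C; cell viability is quantified by CellTiter-Glo luminescence.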

[9] = biological target: Bile acid receptor (Homo sapiens) (UniProt Q96RI1); assay: qHTS assay to identify small molecule antagonists of the farnesoid-X-receptor (FXR) signaling pathway (AID 743217; active = well fitted inhibition curve with a large enough effect in the signal ratio in the repeat runs, not every such curve was filed as active; the % refers to the signal ratio); details: HEK293T FXR-UAS-bla, beta-lactamase ratio, CDCA-stimulated, 16 h; at 62.6 µM (top of the series)
Description: U.S. Tox21 Program National Center for Advancing Translational Sciences [NCATS] NIH Chemical Genomics Center [NCGC] U.S. Environmental Protection Agency [EPA] National Institutes of Environmental Health Sciences [NIEHS] National Toxicology Program [NTP] U.S. Food and Drug Administration [FDA] Tox21 Assay Overview: The farnesoid-X-receptor (FXR), a nuclear hormone receptor, is highly expressed in liver, intestine, kidney and adrenal cortex. Natural ligands of FXR are the bile acids (Cholic acid, Chenodeoxy cholic acid etc). FXR is an important regulator of diverse metabolic pathways, including the bile acid homeostasis, lipid and glucose metabolisms. FXR regulates the expression of target genes by binding either as a monomer or as a heterodimer with the retinoid X receptor (RXR). Numerous studies have reported that FXR exerts protective function during cholestasis, diabetes, liver regeneration, and cancer. To identify compounds that inhibit FXR signaling, GeneBLAzer FXR-UAS-bla HEK 293T cell line (Invitrogen, Carlsbad, CA) containing a beta-lactamase reporter gene under the control of a UAS response element was used to screen the Tox21 10K compound library.
Tox21 Assay Protocol Summary: FXR-bla cells were dispensed at 5000 cells/5uL/well in 1536-well black wall/clear bottom plates using a Multidrop Combi (Thermo Fisher Scientific, Waltham, MA) dispenser. After the assay plates were incubated at 37C and 5% CO2 for 5 h, 23 nL of compounds dissolved in DMSO, positive controls or DMSO only was transferred to the assay plate by a Pintool station (Kalypsys, San Diego, CA), followed by addition of 1 uL Chenodeoxycholic acid (50 uM, final concentration in the wells). The assay plates were incubated at 37C for 16 h. After 1 uL of LiveBLAzerTM B/G FRET substrate was added using a Bioraptr Flying Reagent Dispenser (FRD) workstation (Beckman Coulter, Indianapolis, IN), the plates were incubated at room temperature for 2 h, and fluorescence intensity was measured by an Envision plate reader (PerkinElmer, Shelton, CT).
% is set by controls: 0 for no effect and ±100 for the full control effect.

Cc1ccc([N+](=O)[O-])c([N+](=O)[O-])c1
inactive: viability change, negative = cytotoxic ([1]; at 94.8 µM (top of the series)) -6.98% | activity change, negative = cytotoxicity ([2]; at 62.6 µM (top of the series)) 7.07% | activity change, negative = cytotoxicity ([2]; at 81.1 µM (top of the series)) 2.51% | viability change, negative = cytotoxic ([3]; at 62.6 µM (top of the series)) 0.656% | viability change, negative = cytotoxic ([3]; at 81.1 µM (top of the series)) 4.81% | activity change, negative = inhibition ([4]; at 61 µM (top of the series)) 24.5% | activity change, negative = inhibition ([4]; at 78.8 µM (top of the series)) 10.5% | activity change, negative = cytotoxicity ([5]; at 62.6 µM (top of the series)) 6.42% | activity change, negative = cytotoxicity ([5]; at 81.1 µM (top of the series)) 11.2%

COc1ccc([N+](=O)[O-])cc1[N+](=O)[O-]
inactive: viability change, negative = cytotoxic ([1]; at 73.3 µM (top of the series)) 7.74% | activation ([6]; at 62.6 µM (top of the series)) -0.114% | activity change, negative = cytotoxicity ([2]; at 62.6 µM (top of the series)) 1.61% | activation ([7]; at 62.6 µM (top of the series)) 2.04% | viability change, negative = cytotoxic ([8]; at 62 µM (top of the series)) -9.89% | viability change, negative = cytotoxic ([3]; at 62.6 µM (top of the series)) 1.72% | activity change, negative = inhibition ([4]; at 61 µM (top of the series)) 2.16% | activity change, negative = cytotoxicity ([5]; at 62.6 µM (top of the series)) 6.62%

C/C1=C2N=C(/C=C3N=C(/C(C)=C4\[N-][C@@](C)([C@@H]5N=C1[C@](C)(CCC(=O)NC[C@@H](C)OP(=O)([O-])O[C@H]1[C@@H](O)[C@@H](n6cnc7cc(C)c(C)cc76)O[C@@H]1CO)[C@H]5CC(N)=O)[C@@](C)(CC(N)=O)[C@@H]4CCC(N)=O)[C@@](C)(CC(N)=O)[C@@H]\3CCC(N)=O)C(C)(C)[C@@H]/2CCC(N)=O.[C-]#N.[Co+3]
inactive: viability change, negative = cytotoxic ([1]; at 73.3 µM (top of the series)) -4.17% | activation ([6]; at 62.6 µM (top of the series)) 0.349% | activity change, negative = cytotoxicity ([2]; at 62.6 µM (top of the series)) -1.18% | activation ([7]; at 62.6 µM (top of the series)) 0.944% | viability change, negative = cytotoxic ([8]; at 62 µM (top of the series)) 0.826% | activity change, negative = inhibition [9] 1.11% | viability change, negative = cytotoxic ([3]; at 62.6 µM (top of the series)) -4.98% | activity change, negative = inhibition ([4]; at 61 µM (top of the series)) 5.9% | activity change, negative = cytotoxicity ([5]; at 62.6 µM (top of the series)) 5.83%

CCOP(=O)(CC)Oc1ccc([N+](=O)[O-])cc1 (stereo unspecified)
inactive: viability change, negative = cytotoxic ([1]; at 73.3 µM (top of the series)) -1.72% | activation ([6]; at 62.6 µM (top of the series)) 6.73% | activity change, negative = cytotoxicity ([2]; at 62.6 µM (top of the series)) -3.52% | activation ([7]; at 62.6 µM (top of the series)) 9.42% | activity change, negative = inhibition [9] -15.4% | activity change, negative = inhibition ([4]; at 61 µM (top of the series)) -25.7% | activity change, negative = cytotoxicity ([5]; at 62.6 µM (top of the series)) 5.19%

Cc1cccc([N+](=O)[O-])c1[N+](=O)[O-]
inactive: viability change, negative = cytotoxic ([1]; at 73.3 µM (top of the series)) 22.7% | activation ([6]; at 62.6 µM (top of the series)) 3.8% | activation ([7]; at 62.6 µM (top of the series)) -7.14% | viability change, negative = cytotoxic ([3]; at 62.6 µM (top of the series)) -19.3%

CC(C)OP(C)(=O)OC(C)C
inactive: viability change, negative = cytotoxic ([1]; at 73.3 µM (top of the series)) -9.01% and 3.41% | activation ([6]; at 62.6 µM (top of the series)) -0.252% and 0.56% | activation ([7]; at 62.6 µM (top of the series)) -0.109% and -2.59% | viability change, negative = cytotoxic ([8]; at 62 µM (top of the series)) -11.1% and 9.24% | viability change, negative = cytotoxic ([3]; at 62.6 µM (top of the series)) 5.28% and -6.71% | activity change, negative = cytotoxicity ([5]; at 62.6 µM (top of the series)) -3.47% and 0.576%

CCN(CC)CCCl
inactive: viability change, negative = cytotoxic ([1]; at 94.8 µM (top of the series)) -2.79% | activation ([6]; at 81.1 µM (top of the series)) 0.645% | activity change, negative = inhibition ([4]; at 78.8 µM (top of the series)) -13.3% | activity change, negative = cytotoxicity ([5]; at 81.1 µM (top of the series)) 2.71%

COP(C)(=O)OC
inactive: viability change, negative = cytotoxic ([1]; at 73.3 µM (top of the series)) -0.218% | viability change, negative = cytotoxic ([1]; at 94.8 µM (top of the series)) -2.43% | activation ([6]; at 62.6 µM (top of the series)) 3.76% | activation ([6]; at 81.1 µM (top of the series)) -1.08% | activity change, negative = cytotoxicity ([2]; at 62.6 µM (top of the series)) -8.97% | activity change, negative = cytotoxicity ([2]; at 81.1 µM (top of the series)) 0.578% | activation ([7]; at 62.6 µM (top of the series)) 6.3% | activation ([7]; at 81.1 µM (top of the series)) 1.05% | viability change, negative = cytotoxic ([8]; at 80.4 µM (top of the series)) -1.43% | viability change, negative = cytotoxic ([3]; at 62.6 µM (top of the series)) -0.304% | viability change, negative = cytotoxic ([3]; at 81.1 µM (top of the series)) -1.47% | activity change, negative = inhibition ([4]; at 61 µM (top of the series)) -9.95% | activity change, negative = inhibition ([4]; at 78.8 µM (top of the series)) -8.48% | activity change, negative = cytotoxicity ([5]; at 62.6 µM (top of the series)) 1.68% | activity change, negative = cytotoxicity ([5]; at 81.1 µM (top of the series)) 3.81%

Cc1ccc([N+](=O)[O-])cc1[N+](=O)[O-]
inactive: viability change, negative = cytotoxic ([1]; at 73.3 µM (top of the series)) 7.75% and 5.52% | activation ([6]; at 62.6 µM (top of the series)) -0.743% and -0.374% | activity change, negative = cytotoxicity ([2]; at 62.6 µM (top of the series)) -0.0781% and 7.07% | viability change, negative = cytotoxic ([8]; at 62 µM (top of the series)) 0.945% and -19.3% | viability change, negative = cytotoxic ([3]; at 62.6 µM (top of the series)) -11.9% and 11% | activity change, negative = inhibition ([4]; at 61 µM (top of the series)) -11.6% and 4.73%

N=C(N)N[N+](=O)[O-]
inactive: viability change, negative = cytotoxic ([1]; at 94.8 µM (top of the series)) -5.72% | activation ([6]; at 81.1 µM (top of the series)) 0.0992% | activity change, negative = cytotoxicity ([2]; at 81.1 µM (top of the series)) 4.18% | activation ([7]; at 81.1 µM (top of the series)) -4.22% | viability change, negative = cytotoxic ([8]; at 80.4 µM (top of the series)) 19.1% | viability change, negative = cytotoxic ([3]; at 81.1 µM (top of the series)) 10.2% | activity change, negative = inhibition ([4]; at 78.8 µM (top of the series)) 5.85% | activity change, negative = cytotoxicity ([5]; at 81.1 µM (top of the series)) 10.5%
